# Ab-95 light chain CDR variants: yeast mating affinities

The target is the same throughout: PDVDLGDISGINAS, from the HR2 region of SARS-CoV-2 spike.

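The starting antibody came from a phage panning campaign against this peptide. Variants in AAYL52 differ from the parent at up to three CDR positions; double and triple changes were sampled at random. The assay is AlphaSeq: two haploid yeast populations carry antibody and antigen on their surface. Mating (16 h, 30 °C) was followed by selection of diploids and sequencing of their barcodes. Read counts were normalised to the haploid input and turned into Kd by a linear fit to BCL2-family pairs of known affinity, for each replicate. The assay was run in three technical replicates.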

Parent: Ab-95, a human scFv built as VH, the linker GGGGSGGGGSGGGGS, VL. Only the CDRs of the light chain vary.
VH: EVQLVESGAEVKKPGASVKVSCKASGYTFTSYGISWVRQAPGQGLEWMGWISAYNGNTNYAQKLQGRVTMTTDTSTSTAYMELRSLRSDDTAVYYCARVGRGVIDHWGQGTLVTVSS
VL: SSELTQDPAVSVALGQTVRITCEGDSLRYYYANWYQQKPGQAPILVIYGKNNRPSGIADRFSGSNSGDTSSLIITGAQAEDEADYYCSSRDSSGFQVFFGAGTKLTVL

Positions count from residue 1 of the parent VL; A32Q puts Q in place of A.
Every variant below is changed at R53 of the VL (sequential numbering).
Values are apparent Kd, the geometric mean of the replicates that gave a signal; lower means stronger binding.
A pair that was not seen in any replicate is written "nd"; this usually means weak binding, but a binder can also be missed.
Background: pairings of library AAYL52 with three empty control strains gave a value in 28% of cases (median 8.2 µM, 5th percentile 800 nM). Values in that range, when seen in few replicates, are hard to tell from nonspecific mating.

The variant A32Q/R53H gave 2.4 µM (1 of 3 replicates). With D25M/R53H/S89C the result was 1.4 µM (3 of 3 replicates). The variant R28P/Y31D/R53Q gave 21 nM (3 of 3 replicates). The variant R53W/S89I/F98R showed 22 µM (1 of 3 replicates). With N52H/R53D/R90K the result was nd (0 of 3 replicates). The variant D25S/R53S/S89G gave 790 nM (3 of 3 replicates). The variant A32Q/R53A/R90F showed 9.9 µM (1 of 3 replicates). With Y31S/R53T/S55K the result was 140 nM (3 of 3 replicates).

The variant Y29Q/K50F/R53N showed nd (0 of 3 replicates). For G49N/R53E, the assay gave 21 µM (2 of 3 replicates). For S26Y/N33W/R53A, the assay gave 1.4 µM (2 of 3 replicates). For R53I/F98Q, the assay gave nd (0 of 3 replicates). For L27G/R53F/V97E, the assay gave 3.9 µM (3 of 3 replicates). For E23G/Y31T/R53I, the assay gave 1.3 µM (3 of 3 replicates). With Y30C/R53C/S93C the result was 210 µM (1 of 3 replicates). For N51Y/R53N/S92M, the assay gave 8.1 µM (3 of 3 replicates).

The variant Y31V/R53Q/D91F showed 25 µM (1 of 3 replicates). With R53A/S88G/F95W the result was 4.8 µM (3 of 3 replicates). With R53I/S88D the result was 6.8 µM (2 of 3 replicates). For K50C/R53C/F95C, the assay gave nd (0 of 3 replicates). The variant N33H/R53N/F95P gave 8.2 µM (2 of 3 replicates). The variant S26K/R28C/R53H showed 3.2 µM (1 of 3 replicates). With K50C/R53G/P54L the result was nd (0 of 3 replicates). With R53L/R90S/G94D the result was 2.6 µM (1 of 3 replicates).

The variant Y30G/K50Q/R53K showed 5.7 nM (3 of 3 replicates). With R28D/N52H/R53A the result was 4.0 µM (3 of 3 replicates). For E23Q/R53G, the assay gave 380 nM (3 of 3 replicates). The variant D25V/Y29D/R53G showed 6.6 µM (3 of 3 replicates). The variant S26W/R53N/Q96L showed 6.7 µM (1 of 3 replicates). The variant R53A/S92M gave 860 nM (3 of 3 replicates). The variant S26D/R53H/S88Q showed 38 µM (2 of 3 replicates). For G24K/R53S/F95G, the assay gave 95 µM (2 of 3 replicates).

For Y30D/N33W/R53I, the assay gave 29 µM (2 of 3 replicates). The variant N51F/R53Q/S88V showed 7.8 µM (2 of 3 replicates). For G49N/R53D/Q96A, the assay gave 3.1 µM (3 of 3 replicates). For G49N/R53C/V97Y, the assay gave 12 µM (1 of 3 replicates). With G49P/R53N/F95A the result was 2.1 µM (1 of 3 replicates). With K50Q/N51A/R53F the result was 200 µM (2 of 3 replicates). The variant D25G/Y29W/R53C gave 7.9 µM (2 of 3 replicates).

The closing 3 entries, repeated:

For G49P/R53N/F95A, the assay gave 2.1 µM (1 of 3 replicates).
For K50Q/N51A/R53F, the assay gave 200 µM (2 of 3 replicates).
For D25G/Y29W/R53C, the assay gave 7.9 µM (2 of 3 replicates).

Data: MIT Lincoln Laboratory AlphaSeq set, Engelhart et al. 2022, doi:10.1038/s41597-022-01779-4, as distributed in FLAb.